Cyclic peptide permeability, from CycPeptMPDB

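Conditions beyond the assay type are not listed; see the original paper. Other peptides of the study may be missing here. Entries at the database's floor value (log10 P of -10) are not listed.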

PAMPA measures passive passage through an artificial lipid membrane. Permeability is given as log10 of P in cm/s; higher (less negative) is more permeable.

| compound | PAMPA (log10 cm/s) |
|---|---|
| CCCC[C@@H]1NC(=O)[C@H](CC(C)C)N(C)C(=O)CN(CC2CCOCC2)C(=O)[C@H](Cc2ccccc2)NC(=O)CN(CCCOC(C)C)C(=O)[C@@H]2CCCN2C1=O | -5.07 |
| CCCCCN1CC(=O)N(C)[C@H](CC(C)C)C(=O)N[C@@H](CCCC)C(=O)N2CCC[C@@H]2C(=O)N(CC)CC(=O)N[C@@H](Cc2ccccc2)C1=O | -5.11 |
| CCCC[C@@H]1NC(=O)[C@H](CC(C)C)NC(=O)CN(CC2CCOCC2)C(=O)[C@@H](C)NC(=O)CN(CCCOC(C)C)C(=O)[C@@H]2CCCN2C1=O | -7.92 |
| CCCC[C@@H]1NC(=O)[C@H](CC(C)C)N(C)C(=O)CN(CC2CCCCC2)C(=O)[C@H](Cc2ccccc2)NC(=O)CN(Cc2ccc3c(c2)OCO3)C(=O)[C@H]2CCCN2C1=O | -7.54 |
| CCCCCN1CC(=O)N[C@@H](CC(C)C)C(=O)N[C@@H](CCCC)C(=O)N2CCC[C@@H]2C(=O)N(CCCOC(C)C)CC(=O)N[C@H](C)C1=O | -5.97 |
| CCCCCN1CC(=O)N[C@H](CC(C)C)C(=O)N[C@@H](CCCC)C(=O)N2CCC[C@H]2C(=O)N(Cc2ccc3c(c2)OCO3)CC(=O)N[C@H](C)C1=O | -5.68 |
| CCCC[C@@H]1NC(=O)[C@@H](CC(C)C)N(C)C(=O)CN(CC2CCCCC2)C(=O)[C@@H](C)NC(=O)CN(Cc2ccc3c(c2)OCO3)C(=O)[C@@H]2CCCN2C1=O | -5.10 |
| CCCCCN1CC(=O)N[C@H](CC(C)C)C(=O)N[C@@H](CCCC)C(=O)N2CCC[C@H]2C(=O)N(CC)CC(=O)N[C@@H](Cc2ccccc2)C1=O | -5.05 |
| CCCC[C@@H]1NC(=O)[C@H](CC(C)C)N(C)C(=O)CN(CC2CCCCC2)C(=O)[C@@H](Cc2ccccc2)NC(=O)CN(Cc2ccc3c(c2)OCO3)C(=O)[C@@H]2CCCN2C1=O | -5.95 |
| CCCC[C@@H]1NC(=O)[C@H](CC(C)C)NC(=O)CN(CC2CCOCC2)C(=O)[C@@H](C)NC(=O)CN(CCCOC(C)C)C(=O)[C@H]2CCCN2C1=O | -7.84 |
| CCCCCN1CC(=O)N(C)[C@@H](CC(C)C)C(=O)N[C@@H](CCCC)C(=O)N2CCC[C@@H]2C(=O)N(Cc2ccc3c(c2)OCO3)CC(=O)N[C@@H](Cc2ccccc2)C1=O | -6.67 |
| CCCCCN1CC(=O)N(C)[C@H](CC(C)C)C(=O)N[C@@H](CCCC)C(=O)N2CCC[C@H]2C(=O)N(CC)CC(=O)N[C@H](Cc2ccccc2)C1=O | -4.96 |
| CCCCCN1CC(=O)N(C)[C@H](CC(C)C)C(=O)N[C@@H](CCCC)C(=O)N2CCC[C@@H]2C(=O)N(CCCOC(C)C)CC(=O)N[C@@H](C)C1=O | -4.85 |
| CCCC[C@@H]1NC(=O)[C@H](CC(C)C)N(C)C(=O)CN(CC2CCOCC2)C(=O)[C@H](C)NC(=O)CN(CC)C(=O)[C@H]2CCCN2C1=O | -7.27 |
| CCCC[C@@H]1NC(=O)[C@H](CC(C)C)NC(=O)CN(CC2CCOCC2)C(=O)[C@H](Cc2ccccc2)NC(=O)CN(Cc2ccc3c(c2)OCO3)C(=O)[C@H]2CCCN2C1=O | -5.10 |
| CCCCCN1CC(=O)N(C)[C@@H](CC(C)C)C(=O)N[C@@H](CCCC)C(=O)N2CCC[C@@H]2C(=O)N(CC)CC(=O)N[C@@H](Cc2ccccc2)C1=O | -5.10 |
| CCCC[C@@H]1NC(=O)[C@H](CC(C)C)NC(=O)CN(CC2CCCCC2)C(=O)[C@@H](C)NC(=O)CN(CC)C(=O)[C@H]2CCCN2C1=O | -6.65 |
| CCCC[C@@H]1NC(=O)[C@@H](CC(C)C)N(C)C(=O)CN(CC2CCCCC2)C(=O)[C@@H](C)NC(=O)CN(Cc2ccc3c(c2)OCO3)C(=O)[C@H]2CCCN2C1=O | -5.13 |
| CCCC[C@@H]1NC(=O)[C@@H](CC(C)C)NC(=O)CN(CC2CCOCC2)C(=O)[C@H](C)NC(=O)CN(CC)C(=O)[C@H]2CCCN2C1=O | -7.39 |
| CCCCCN1CC(=O)N(C)[C@@H](CC(C)C)C(=O)N[C@@H](CCCC)C(=O)N2CCC[C@@H]2C(=O)N(CCCOC(C)C)CC(=O)N[C@@H](C)C1=O | -4.88 |
| CCCC[C@@H]1NC(=O)[C@H](CC(C)C)NC(=O)CN(CC2CCCCC2)C(=O)[C@@H](Cc2ccccc2)NC(=O)CN(CC)C(=O)[C@H]2CCCN2C1=O | -5.30 |
| CCCC[C@@H]1NC(=O)[C@H](CC(C)C)NC(=O)CN(CC2CCOCC2)C(=O)[C@H](C)NC(=O)CN(CC)C(=O)[C@@H]2CCCN2C1=O | -8.00 |
| CCCCCN1CC(=O)N[C@H](CC(C)C)C(=O)N[C@@H](CCCC)C(=O)N2CCC[C@@H]2C(=O)N(CC)CC(=O)N[C@@H](Cc2ccccc2)C1=O | -4.81 |
| CCCCCN1CC(=O)N(C)[C@H](CC(C)C)C(=O)N[C@@H](CCCC)C(=O)N2CCC[C@H]2C(=O)N(CCCOC(C)C)CC(=O)N[C@@H](C)C1=O | -4.91 |

The first 3 entries again:

| compound | PAMPA (log10 cm/s) |
|---|---|
| CCCC[C@@H]1NC(=O)[C@H](CC(C)C)N(C)C(=O)CN(CC2CCOCC2)C(=O)[C@H](Cc2ccccc2)NC(=O)CN(CCCOC(C)C)C(=O)[C@@H]2CCCN2C1=O | -5.07 |
| CCCCCN1CC(=O)N(C)[C@H](CC(C)C)C(=O)N[C@@H](CCCC)C(=O)N2CCC[C@@H]2C(=O)N(CC)CC(=O)N[C@@H](Cc2ccccc2)C1=O | -5.11 |
| CCCC[C@@H]1NC(=O)[C@H](CC(C)C)NC(=O)CN(CC2CCOCC2)C(=O)[C@@H](C)NC(=O)CN(CCCOC(C)C)C(=O)[C@@H]2CCCN2C1=O | -7.92 |

Source: CycPeptMPDB (Li et al. 2023), which took these values from Furukawa et al. 2016, doi:10.1021/acs.jmedchem.6b01246.